# Measurements published in publication PMC6231190 (ACS Medicinal Chemistry Letters, 2018).
# System: HeLa cell line with the ubiquitin fusion degradation reporter UbG76V-GFP
# Test: UbG76V-GFP accumulation assay
structure (smiles),measurement,setting,value
Cc1cc(OCc2nnc(SC3CCCC3)n2-c2cccnc2)ccc1-c1ccc(S(C)(=O)=O)cc1 [NMS-873],EC50,"Homo sapiens, HeLa, 1 h, read-out: Ub^G76 V-GFP EC50 (μM), 1 h",1.42 µM
same,EC50,"read-out: Ub^G76 V-GFP EC50 (μM), 6 h, highest concentration 40 μM",2.1 µM

# Where two headings read alike, the source gives them in different places.
